Experimental data published in patent US20220288223.

Key:
[1] = test system: RACPP with substrate Nle-TPRSFL
[2] = test system: RACPP with substrate YGRAAA
[3] = test system: RACPP with substrate TGRAAA
[4] = test system: RACPP with substrate PLGC(me)AG

Row | Substance | Kcat/Km [1] | Kcat/Km [2] | Kcat/Km [3] | Kcat/Km [4]
1 | Thrombin | 670000 | – | – | –
2 | uPA | – | 834 | 5580 | 1440
